# Ab-14 light chain CDR variants: yeast mating affinities

Binding partner: SARS-CoV-2 spike HR2 peptide, sequence PDVDLGDISGINAS.

Parent: Ab-14, a human scFv built as VH, a (GGGGS)3 linker, VL. Only the CDRs of the light chain vary.
VH: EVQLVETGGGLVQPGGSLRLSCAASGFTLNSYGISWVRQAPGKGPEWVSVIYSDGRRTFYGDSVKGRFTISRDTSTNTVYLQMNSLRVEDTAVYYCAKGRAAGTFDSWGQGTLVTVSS
VL: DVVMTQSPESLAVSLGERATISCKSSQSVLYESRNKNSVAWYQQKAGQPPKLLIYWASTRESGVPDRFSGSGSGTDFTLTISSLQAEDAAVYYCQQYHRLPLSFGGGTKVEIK

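The library (AAYL50) carries one to three amino acid substitutions per variant, with no insertions or deletions. The assay is AlphaSeq: two haploid yeast populations carry antibody and antigen on their surface. After mating in shaken culture at 30 °C for 16 h, diploids were selected and their barcode pairs sequenced. A regression on co-assayed BCL2-family reference pairs converts the normalised counts of each replicate to an apparent Kd. Mating was done three times.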

Each variant's VL is given in full. Numbers give log10(Kd / nM), so 0 is 1 nM and 3 is 1 µM. Smaller is tighter. Replicates are averaged; those with no signal do not enter the mean. Where no diploid with the target was found in any replicate, the entry reads "nd": below detection, most likely a poor binder, though not proof of it. Nonspecific signal, from three strains lacking the peptide, appeared in 18% of pairings of library AAYL50, centred on 4.19 (5% of these signals below 2.99); values are not corrected for it. Parent in this assay: reference entry 0.65, copy in this library 1.68.

VL | mean log10 Kd (nM) | detected
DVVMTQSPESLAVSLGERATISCKSSQSVLYESRNKNCVAWYQQKAGQPPKLLIYWDSTRESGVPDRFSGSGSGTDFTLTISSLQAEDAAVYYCQQYHRGPLSFGGGTKVEIK | 2.69 | 3/3
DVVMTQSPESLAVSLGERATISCKQSQSVLEESRNKNSVAWYQQKAGQPPKLLIYWASTVESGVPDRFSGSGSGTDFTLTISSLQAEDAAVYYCQQYHRLPLSFGGGTKVEIK | 2.21 | 3/3
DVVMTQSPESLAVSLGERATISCKSSQSVLYESRNKNSVAWYQQKAGQPPKLLIYWSFTRERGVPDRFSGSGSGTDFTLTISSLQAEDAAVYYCQQYHRLPLSFGGGTKVEIK | 2.94 | 3/3
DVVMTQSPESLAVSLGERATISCKSSQQVLYESRNKNSVAWYQQKAGQPPKLLIYRAITRESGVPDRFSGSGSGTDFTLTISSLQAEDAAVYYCQQYHRLPLSFGGGTKVEIK | 1.00 | 3/3
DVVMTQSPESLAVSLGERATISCKSSQSVLIESRNKNGVAWYQQKAGQPPKLLIYAASTRESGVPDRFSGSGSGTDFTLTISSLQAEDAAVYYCQQYHRLPLSFGGGTKVEIK | 0.57 | 3/3
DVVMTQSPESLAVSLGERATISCKSSQSVLYTSRNKNSVAWYQQKAGQPPKLLIYWASTRESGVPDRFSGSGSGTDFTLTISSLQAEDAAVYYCQQYPRLPLSFGGGTKVEIK | nd | 0/3
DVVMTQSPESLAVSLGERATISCKSSQSVMYESRNKNSVAWYQQKAGQPPKLLIYWASTFESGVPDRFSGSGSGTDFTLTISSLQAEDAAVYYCQQYHRLPLSFGGGTKVEIK | 3.86 | 2/3
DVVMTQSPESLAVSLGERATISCVSSQSVLYESRNKNSCAWYQQKAGQPPKLLIYWASTRESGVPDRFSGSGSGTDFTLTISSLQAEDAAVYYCQQYHRLPLSFGGGTKVEIK | 4.93 | 1/3
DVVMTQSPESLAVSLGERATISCKSSQSVLCESRDKNSVAWYQQKAGQPPKLLIYWASTRESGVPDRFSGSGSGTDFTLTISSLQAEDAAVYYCQQYHRLPLSFGGGTKVEIK | 1.26 | 3/3
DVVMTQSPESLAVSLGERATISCKSSQSVLYEARNKNSVAWYQQKAGQPPKLLIYWASTRESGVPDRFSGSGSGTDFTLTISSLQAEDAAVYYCPLYHRLPLSFGGGTKVEIK | 3.08 | 3/3
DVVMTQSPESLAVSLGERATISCKSSQSVCYESRNKNDQAWYQQKAGQPPKLLIYWASTRESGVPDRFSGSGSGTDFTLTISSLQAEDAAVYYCQQYHRLPLSFGGGTKVEIK | nd | 0/3
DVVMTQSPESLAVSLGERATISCKSSQSVSKESRNKNSVAWYQQKAGQPPKLLIYWASTRESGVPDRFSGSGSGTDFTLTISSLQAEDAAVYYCQQYHRLPLSFGGGTKVEIK | 0.69 | 3/3
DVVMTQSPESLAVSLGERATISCKSSQSVLYEFRNKNSVAWYQQKAGQPPKLLIYWAETRESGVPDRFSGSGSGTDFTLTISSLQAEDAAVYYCQQPHRLPLSFGGGTKVEIK | 3.55 | 3/3
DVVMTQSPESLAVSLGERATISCKSSQSVLYESQNKMCVAWYQQKAGQPPKLLIYWASTRESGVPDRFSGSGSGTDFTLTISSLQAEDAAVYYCQQYHRLPLSFGGGTKVEIK | nd | 0/3
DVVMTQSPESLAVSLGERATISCKSSQSVLYESRNKNSTAWYQQKAGQPPKLLIYWASTRESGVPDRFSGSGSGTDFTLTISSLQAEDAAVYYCQQYHRLPAWFGGGTKVEIK | 4.57 | 2/3
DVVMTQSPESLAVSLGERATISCKSSQSVLYCSRNKNSVAWYQQKAGQPPKLLIYWASTKKSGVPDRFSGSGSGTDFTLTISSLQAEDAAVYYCQQYHRLPLSFGGGTKVEIK | nd | 0/3

A selection of 2 entries from above:

{"VL": "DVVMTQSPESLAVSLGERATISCKSSQSVLYCSRNKNSVAWYQQKAGQPPKLLIYWASTKKSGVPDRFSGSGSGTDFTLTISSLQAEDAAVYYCQQYHRLPLSFGGGTKVEIK", "mean log10 Kd (nM)": "nd", "detected": "0/3"}
{"VL": "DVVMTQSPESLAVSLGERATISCKSSQSVLYESQNKMCVAWYQQKAGQPPKLLIYWASTRESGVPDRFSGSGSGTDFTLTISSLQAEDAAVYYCQQYHRLPLSFGGGTKVEIK", "mean log10 Kd (nM)": "nd", "detected": "0/3"}

Data: MIT Lincoln Laboratory AlphaSeq set, Engelhart et al. 2022, doi:10.1038/s41597-022-01779-4, as distributed in FLAb.